Experimental data published in patent US20210395313A1, “PEPTIDE PAC1 ANTAGONISTS” (AMGEN INC., priority 2017, published 2021).

Key:
rat PAC1 receptor = biological target: T1, rat PAC1 receptor (Rattus norvegicus, UniProt P32215); experiment: LANCE Ultra cAMP accumulation antagonist assay in RG-2 cells; format: cell-based;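 further: RG-2 rat glioma cells endogenously expressing PAC1, test peptide preincubated 30 min, then PAC1 agonist added at its EC80 for 15 min, cAMP accumulation read by LANCE Ultra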
T1 construct: SHSY-5Y (human neuroblastoma cell line) and RG-2 (rat glioma cell line) cells endogenously express human and rat PAC1 receptors, respectively; endogenous in cells; host or cells: RG-2 rat glioma cells
T1 sequence (P32215 20-523): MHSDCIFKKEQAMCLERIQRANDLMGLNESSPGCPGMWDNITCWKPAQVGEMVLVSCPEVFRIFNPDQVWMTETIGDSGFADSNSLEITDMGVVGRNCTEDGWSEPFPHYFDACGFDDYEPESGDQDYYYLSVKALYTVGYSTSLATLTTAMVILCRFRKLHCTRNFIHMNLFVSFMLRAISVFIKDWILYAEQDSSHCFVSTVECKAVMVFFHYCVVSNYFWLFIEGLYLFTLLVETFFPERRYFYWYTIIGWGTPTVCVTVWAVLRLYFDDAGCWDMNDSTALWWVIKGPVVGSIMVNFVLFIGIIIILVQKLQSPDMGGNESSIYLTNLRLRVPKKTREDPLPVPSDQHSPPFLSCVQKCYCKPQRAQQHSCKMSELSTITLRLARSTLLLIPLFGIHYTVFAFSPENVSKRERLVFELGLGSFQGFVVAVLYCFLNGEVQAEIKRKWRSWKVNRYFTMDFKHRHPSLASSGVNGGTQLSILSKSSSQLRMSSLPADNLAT

human PAC1 receptor = biological target: T2, human PAC1 receptor (Homo sapiens, UniProt P41586); experiment: LANCE Ultra cAMP accumulation antagonist assay in SHSY-5Y cells; format: cell-based;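 further: inhibition of cAMP accumulation evoked by PAC1 agonist at its EC80 in SHSY-5Y cells endogenously expressing receptor, 30 min preincubation then 15 min agonist, TR-FRET readout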
T2 construct: SHSY-5Y (human neuroblastoma cell line) and RG-2 (rat glioma cell line) cells endogenously express human and rat PAC1 receptors, respectively; endogenous in cells; host or cells: SHSY-5Y human neuroblastoma cells
T2 sequence (P41586 21-468): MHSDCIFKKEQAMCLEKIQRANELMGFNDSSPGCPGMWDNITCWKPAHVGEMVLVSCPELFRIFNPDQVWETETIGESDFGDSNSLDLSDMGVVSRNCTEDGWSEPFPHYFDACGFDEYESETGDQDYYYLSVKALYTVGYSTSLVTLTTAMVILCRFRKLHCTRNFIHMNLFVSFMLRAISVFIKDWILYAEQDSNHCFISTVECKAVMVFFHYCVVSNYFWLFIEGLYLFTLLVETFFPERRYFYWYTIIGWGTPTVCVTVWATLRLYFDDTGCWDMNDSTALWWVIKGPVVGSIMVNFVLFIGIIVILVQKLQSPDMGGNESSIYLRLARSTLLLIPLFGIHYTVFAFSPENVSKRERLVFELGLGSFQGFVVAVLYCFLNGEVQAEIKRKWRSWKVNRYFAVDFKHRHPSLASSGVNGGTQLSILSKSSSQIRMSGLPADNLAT

Compound | pIC50 (rat PAC1 receptor) | pIC50 (human PAC1 receptor)
CCCC[C@H](NC(=O)[C@@H]1CSSC[C@H](NC(=O)[C@H](CC(=O)O)NC(=O)[C@H](CC(=O)O)NC(=O)[C@@H](NC(=O)[C@H](C)NC(=O)[C@H](CCCCN)NC(=O)[C@H](CCCNC(=N)N)NC(=O)[C@H](Cc2ccccc2)NC(=O)[C@H](CCC(N)=O)NC(=O)[C@@H]2CSSC[C@H](N)C(=O)N[C@@H](CC(=O)O)C(=O)N[C@@H](C)C(=O)N[C@@H]([C@@H](C)O)C(=O)N2)[C@@H](C)CC)C(=O)N[C@@H](CC(=O)O)C(=O)N[C@@H](CCCCN)C(=O)N[C@@H](CCC(N)=O)C(=O)N[C@@H](C)C(=O)N[C@@H](Cc2c[nH]cn2)C(=O)N[C@@H](Cc2c[nH]cn2)C(=O)N[C@@H](CO)C(=O)N[C@@H](CC(N)=O)C(=O)N[C@@H](CO)C(=O)N[C@@H](Cc2ccccc2)C(=O)N[C@@H](CCCCN)C(=O)N[C@@H](CCC(=O)O)C(=O)N1)C(=O)N[C@@H](CCCCN)C(=O)N[C@@H](CCC(N)=O)C(=O)N[C@@H](CCCCN)C(=O)N[C@@H](CCCCN)C(=O)N[C@@H](CCCCN)C(=O)N[C@@H](CCC(=O)O)C(=O)N[C@@H](Cc1ccccc1)C(=O)N[C@@H](CCCCN)C(N)=O [compound 220] | 7.00 to 9.00 | 7.00 to 9.00
CC[C@H](C)[C@H](NC(=O)[C@H](C)NC(=O)[C@H](CCCCN)NC(=O)[C@H](CCCNC(=N)N)NC(=O)[C@H](Cc1ccccc1)NC(=O)[C@H](CCC(N)=O)NC(=O)[C@@H]1CSSC[C@H](N)C(=O)N[C@@H](CC(=O)O)C(=O)N[C@@H](C)C(=O)N[C@@H]([C@@H](C)O)C(=O)N1)C(=O)N[C@@H](CC(=O)O)C(=O)N[C@@H](CC(=O)O)C(=O)N[C@H]1CSSC[C@@H](C(=O)N[C@@H](CCSC)C(=O)N[C@@H](CCCCN)C(=O)N[C@@H](CCC(N)=O)C(=O)N[C@@H](CCCCN)C(=O)N[C@@H](CCCCN)C(=O)N[C@@H](CCCCN)C(=O)N[C@@H](CCC(=O)O)C(=O)N[C@@H](Cc2ccccc2)C(=O)N[C@@H](CCCCN)C(=O)N[C@@H](C)C(=O)NCC(N)=O)NC(=O)C(C)(C)NC(=O)[C@H](CCCCN)NC(=O)[C@H](Cc2ccccc2)NC(=O)[C@H](C(C)C)NC(=O)[C@H](CO)NC(=O)CNC(=O)[C@H](C(C)C)NC(=O)[C@H](CC(N)=O)NC(=O)[C@H](CO)NC(=O)[C@H](Cc2c[nH]cn2)NC(=O)[C@H](Cc2c[nH]cn2)NC(=O)[C@H](C)NC(=O)[C@H](CCC(N)=O)NC(=O)[C@H](CCCCN)NC(=O)[C@H](CCC(N)=O)NC1=O [compound 262] | 9.00 to 11.00 | 7.00 to 9.00
CCCC[C@H](NC(=O)[C@@H]1CSSC[C@H](NC(=O)[C@H](CC(=O)O)NC(=O)[C@H](CC(=O)O)NC(=O)[C@@H](NC(=O)[C@H](C)NC(=O)[C@H](CCCCN)NC(=O)[C@H](CCCNC(=N)N)NC(=O)[C@H](Cc2ccccc2)NC(=O)[C@H](CCC(N)=O)NC(=O)[C@@H]2CSSC[C@H](N)C(=O)N[C@@H](CC(=O)O)C(=O)N[C@@H](C)C(=O)N[C@@H]([C@@H](C)O)C(=O)N2)[C@@H](C)CC)C(=O)N[C@@H](CC(=O)O)C(=O)N[C@@H](CCCCN)C(=O)N[C@@H](CCC(N)=O)C(=O)N[C@@H](C)C(=O)N[C@@H](Cc2ccc(O)cc2)C(=O)N[C@@H](Cc2c[nH]cn2)C(=O)N[C@@H](CO)C(=O)N[C@@H](CC(N)=O)C(=O)N[C@@H](C(C)C)C(=O)N2CCC[C@H]2C(=O)N[C@@H](CO)C(=O)N[C@@H](C(C)C)C(=O)N[C@@H](Cc2ccccc2)C(=O)N[C@@H](CCCCN)C(=O)NC(C)(C)C(=O)N1)C(=O)N[C@@H](CCCCN)C(=O)N[C@@H](CCC(N)=O)C(=O)N[C@@H](CCCCN)C(=O)N[C@@H](CCCCN)C(=O)N[C@@H](CCCCN)C(=O)N[C@@H](CCC(=O)O)C(=O)N[C@@H](Cc1ccccc1)C(=O)N[C@@H](CCCCN)C(=O)N[C@@H](C)C(=O)NCC(N)=O [compound 251] | 9.00 to 11.00 | 7.00 to 9.00
CC[C@H](C)[C@H](NC(=O)[C@H](C)NC(=O)[C@H](CCCCN)NC(=O)[C@H](CCCNC(=N)N)NC(=O)[C@H](Cc1ccccc1)NC(=O)[C@H](CCC(N)=O)NC(=O)[C@@H]1CSSC[C@H](N)C(=O)N[C@@H](CC(=O)O)C(=O)N[C@@H](C)C(=O)N[C@@H]([C@@H](C)O)C(=O)N1)C(=O)N[C@@H](CC(=O)O)C(=O)N[C@@H](CC(=O)O)C(=O)N[C@H]1CSSC[C@@H](C(=O)N[C@@H](CCSC)C(=O)N[C@@H](CCCCN)C(=O)N[C@@H](CCC(N)=O)C(=O)N[C@@H](CCCCN)C(=O)N[C@@H](CCCCN)C(=O)N[C@@H](CCCCN)C(=O)N[C@@H](CCC(=O)O)C(=O)N[C@@H](Cc2ccccc2)C(=O)N[C@@H](CCCCN)C(N)=O)NC(=O)C(C)(C)NC(=O)[C@H](CCCCN)NC(=O)[C@H](Cc2ccccc2)NC(=O)[C@H](CO)NC(=O)[C@H](CC(N)=O)NC(=O)[C@H](CO)NC(=O)[C@H](Cc2c[nH]cn2)NC(=O)[C@H](Cc2c[nH]cn2)NC(=O)[C@H](C)NC(=O)[C@H](CCC(N)=O)NC(=O)[C@H](CCCCN)NC(=O)[C@H](CC(=O)O)NC1=O [compound 244] | 9.00 to 11.00 | 7.00 to 9.00
CC[C@H](C)[C@H](NC(=O)[C@H](C)NC(=O)[C@H](CCCCN)NC(=O)[C@H](CCCNC(=N)N)NC(=O)[C@H](Cc1ccccc1)NC(=O)[C@H](CCC(N)=O)NC(=O)[C@H](CO)NC(=O)[C@@H](NC(=O)[C@@H]1CCCN1C(=O)[C@H](CC(=O)O)NC(=O)[C@@H](N)CO)[C@@H](C)O)C(=O)N[C@@H](CC(=O)O)C(=O)N[C@@H](CC(=O)O)C(=O)N[C@H]1CSSC[C@@H](C(=O)N[C@@H](CCSC)C(=O)N[C@@H](CCCCN)C(=O)N[C@@H](CCC(N)=O)C(=O)N[C@@H](CCCCN)C(=O)N[C@@H](CCCCN)C(=O)N[C@@H](CCCCN)C(=O)N[C@@H](CCC(=O)O)C(=O)N[C@@H](Cc2ccccc2)C(=O)N[C@@H](CCCCN)C(=O)N[C@@H](C)C(=O)NCC(N)=O)NC(=O)C(C)(C)NC(=O)[C@H](CCCCN)NC(=O)[C@H](Cc2ccccc2)NC(=O)[C@H](C(C)C)NC(=O)[C@H](CO)NC(=O)CNC(=O)[C@@H]2CCCN2C(=O)[C@H](C(C)C)NC(=O)[C@H](CC(N)=O)NC(=O)[C@H](CO)NC(=O)[C@H](Cc2c[nH]cn2)NC(=O)[C@H](Cc2c[nH]cn2)NC(=O)[C@H](C)NC(=O)[C@H](CCC(N)=O)NC(=O)[C@H](CCCCN)NC(=O)[C@H](CCC(N)=O)NC1=O [compound 213] | 9.00 to 11.00 | 7.00 to 9.00
CC[C@H](C)[C@H](NC(=O)[C@H](C)NC(=O)[C@H](CCCCN)NC(=O)[C@H](CCCNC(=N)N)NC(=O)[C@H](Cc1ccccc1)NC(=O)[C@H](CCC(N)=O)NC(=O)[C@@H]1CSSC[C@H](N)C(=O)N[C@@H](CC(=O)O)C(=O)N[C@@H](C)C(=O)N[C@@H]([C@@H](C)O)C(=O)N1)C(=O)N[C@@H](CC(=O)O)C(=O)N[C@@H](CC(=O)O)C(=O)N[C@H]1CSSC[C@@H](C(=O)N[C@@H](CCSC)C(=O)N[C@@H](CCCCN)C(=O)N[C@@H](CCC(N)=O)C(=O)N[C@@H](CCCCN)C(=O)N[C@@H](CCCCN)C(=O)N[C@@H](CCCCN)C(=O)N[C@@H](CCC(=O)O)C(=O)N[C@@H](Cc2ccccc2)C(=O)N[C@@H](CCCCN)C(=O)N[C@@H](C)C(=O)NCC(N)=O)NC(=O)C(C)(C)NC(=O)[C@H](CCCCN)NC(=O)[C@H](Cc2ccccc2)NC(=O)[C@H](C(C)C)NC(=O)CNC(=O)[C@@H]2CCCN2C(=O)[C@H](C(C)C)NC(=O)[C@H](CC(N)=O)NC(=O)[C@H](CO)NC(=O)[C@H](Cc2c[nH]cn2)NC(=O)[C@H](Cc2c[nH]cn2)NC(=O)[C@H](C)NC(=O)[C@H](CCC(N)=O)NC(=O)[C@H](CCCCN)NC(=O)[C@H](CC(=O)O)NC1=O [compound 238] | 9.00 to 11.00 | 9.00 to 11.00
CC[C@H](C)[C@H](NC(=O)[C@H](C)NC(=O)[C@H](CCCCN)NC(=O)[C@H](CCCNC(=N)N)NC(=O)[C@H](Cc1ccccc1)NC(=O)[C@H](CCC(N)=O)NC(=O)[C@@H]1CSSC[C@H](N)C(=O)N[C@@H](CC(=O)O)C(=O)N[C@@H](C)C(=O)N[C@@H]([C@@H](C)O)C(=O)N1)C(=O)N[C@@H](CC(=O)O)C(=O)N[C@@H](CC(=O)O)C(=O)N[C@H]1CSSC[C@@H](C(=O)N[C@@H](CCSC)C(=O)N[C@@H](CCCCN)C(=O)N[C@@H](CCC(N)=O)C(=O)N[C@@H](CCCCN)C(=O)N[C@@H](CCCCN)C(=O)N[C@@H](CCCCN)C(=O)N[C@@H](CCC(=O)O)C(=O)N[C@@H](Cc2ccccc2)C(=O)N[C@@H](CCCCN)C(N)=O)NC(=O)C(C)(C)NC(=O)[C@H](CCCCN)NC(=O)[C@H](Cc2ccccc2)NC(=O)[C@H](CO)NC(=O)[C@H](CC(N)=O)NC(=O)[C@H](CO)NC(=O)[C@H](Cc2c[nH]cn2)NC(=O)[C@H](Cc2c[nH]cn2)NC(=O)[C@H](C)NC(=O)[C@H](CCC(N)=O)NC(=O)[C@H](CCCCN)NC(=O)[C@H](CCC(N)=O)NC1=O [compound 247] | 7.00 to 9.00 | 7.00 to 9.00

pIC50: −log10 of the molar value.
